PubChem BioAssay AID492953 (The Scripps Research Institute Molecular Screening Center, 2010)
Only a part is listed here, and it is no random draw. Activity calls are given as the source filed them.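 Rule for the calls: active = inhibition above the mean of all tested compounds plus 3 SD (cut at about 24% in these data); inactive = the rest.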

By UniProt entry, the sequences of proteins in these tests, tags left out.
UniProt P68402, whole entry: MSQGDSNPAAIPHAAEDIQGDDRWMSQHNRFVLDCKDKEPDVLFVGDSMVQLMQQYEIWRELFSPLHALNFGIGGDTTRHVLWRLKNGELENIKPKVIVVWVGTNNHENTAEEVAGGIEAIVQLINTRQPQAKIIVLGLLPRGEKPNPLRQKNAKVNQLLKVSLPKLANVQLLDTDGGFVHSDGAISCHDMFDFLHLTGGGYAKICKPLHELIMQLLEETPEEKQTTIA

The molecules below were run against Platelet-activating factor acetylhydrolase IB subunit alpha2 (Homo sapiens) (UniProt P68402) (assay: PAFAH1B2 enzyme inhibitors, primary screen, biochemical, fluorescence polarization, human (AID 492953;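 note: 0% = enzyme with DMSO and 100% = wells lacking PAFAH1B2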)). Details: recombinant PAFAH1B2, FP-rhodamine activity probe, at 3.39 µM, hits give high values.

SMILES	inhibition
CCC(=O)N(c1ccccc1)C1(COC)CCN(CCc2cccs2)CC1	inactive: -0.72%
CCC(=O)N(c1ccccc1)C1(COC)CCN(CCn2nnn(CC)c2=O)CC1	inactive: -0.19%
